# PubChem BioAssay AID588453 (National Center for Advancing Translational Sciences (NCATS), 2011)
# By UniProt entry, the sequences of proteins in these tests, tags left out.
# UniProt O89049, whole entry, looked up: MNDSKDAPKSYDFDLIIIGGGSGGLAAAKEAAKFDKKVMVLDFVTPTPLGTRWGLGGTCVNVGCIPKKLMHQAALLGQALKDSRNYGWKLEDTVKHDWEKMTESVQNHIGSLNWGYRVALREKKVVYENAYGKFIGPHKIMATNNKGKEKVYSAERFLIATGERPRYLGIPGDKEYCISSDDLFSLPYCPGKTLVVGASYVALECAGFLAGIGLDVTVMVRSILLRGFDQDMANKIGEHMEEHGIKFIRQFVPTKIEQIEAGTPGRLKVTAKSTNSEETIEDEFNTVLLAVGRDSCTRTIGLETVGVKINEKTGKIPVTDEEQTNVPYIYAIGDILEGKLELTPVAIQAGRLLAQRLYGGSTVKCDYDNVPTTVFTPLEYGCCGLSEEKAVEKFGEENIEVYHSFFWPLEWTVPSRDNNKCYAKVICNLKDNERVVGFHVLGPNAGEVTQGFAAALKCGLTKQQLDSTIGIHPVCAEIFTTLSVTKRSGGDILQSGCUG
# This is a selection; strong and weak results do not stand in their true shares. Results filed as inconclusive are left out. The source made the active and inactive calls. The call rests on the fitted dose curve; in most records, active means well fitted inhibition curve with a large enough effect; inconclusive means small, poorly fitted or top-dose-only effect; inactive means no such curve, though single readings can be large or run the other way.
# Molecular target: Thioredoxin reductase 1, cytoplasmic (Rattus norvegicus) (UniProt O89049)
# Assay: qHTS Assay for Inhibitors of Mammalian Selenoprotein Thioredoxin Reductase 1 (TrxR1): qHTS; further: nearly all actives have a fitted effect of over 65% in size
# Conditions: recombinant rTrxR1, NADPH fluorescence consumption, selenite substrate
# From the text: The selenoprotein thioredoxin reductase (TrxR; EC 1.8.1.9) is a FAD containing homodimeric pyridine nucleotide-disulfide oxidoreductase with many cellular roles. Together with NADPH and its prime substrate thioredoxin (Trx), the enzyme forms the core of the Trx system. The mammalian Trx system exerts a wide spectrum of functions including redox regulation, antioxidant defense, regulation of transcription factors as well as support of cell growth and replication. Many of these functions involve the reduction of Trx, which may subsequently reduce a number of different substrates including ribonucleotide reductase, peroxiredoxins or NFkB. […]
# This BioAssay is a validation of an NADPH fluorescence-based, dual-purpose qHTS rTrxR1 assay designed to find potential inhibitors and substrates of rTrxR1. […]
# Assay protocol: 2 uL of reagents (buffer in column 4 as negative control and 90 nM rTrxR1 in columns 1-3 and 5-48) were dispensed into Greiner black solid-bottom 1,536-well assay plates, followed by 1 uL of NADPH (400 uM final concentration) to each well. […] The plate was immediately transferred to a ViewLux high-throughput CCD imager (PerkinElmer), wherein kinetic measurements of NADPH fluorescence (Ex 340 nm, Em 450 nm) were acquired (8 minute kinetic read, see Table 1). […]
# Potency means the concentration at half of the fitted maximal effect.
row,Compound,Potency
1,CC[n+]1c(/C=C/N(C)c2ccccc2)oc2ccc(Cl)cc21,active: 70.8 µM
2,CC1(C)N([O-])c2cc([N+](=O)[O-])ccc2[N+]1=O,active: 39.8 µM
